{"source": "patent US20250034106A1", "about": "“3-CYCLOAMINO-INDOLE COMPOUNDS AS SEROTONERGIC AGENTS USEFUL FOR THE TREATMENT OF DISORDERS RELATED THERETO” (Mindset Pharma Inc., priority 2021, published 2025)", "origin": "cited, not measured here", "target": "human 5-HT1A (Homo sapiens (Human), UniProt P08908)", "conditions": "human receptor; read-out: binding affinity 5-HT1A; cited from earlier work"}
{"compound": "COc1ccc2[nH]cc(CCN(C)C)c2c1", "note": "[Compound 5-MeO-DMT, 5-methoxy-N,N-dimethyltryptamine]", "values": [{"measurement": "Ki", "value": "3 ± 0.2", "unit": "nM"}]}
